Laboratory results taken from PMC6874179, “Development of Macrocycle Kinase Inhibitors for ALK2 Using Fibrodysplasia Ossificans Progressiva‐Derived Endothelial Cells” (JBMR Plus, 2019).

Molecular target: T1, caALK2 (Homo sapiens, UniProt Q04771, Q207D)
T1 construct: expressed in transfected cells; host or cells: C2C12 murine myofibroblast cells
T1 sequence (Q04771 21-509 Q207D): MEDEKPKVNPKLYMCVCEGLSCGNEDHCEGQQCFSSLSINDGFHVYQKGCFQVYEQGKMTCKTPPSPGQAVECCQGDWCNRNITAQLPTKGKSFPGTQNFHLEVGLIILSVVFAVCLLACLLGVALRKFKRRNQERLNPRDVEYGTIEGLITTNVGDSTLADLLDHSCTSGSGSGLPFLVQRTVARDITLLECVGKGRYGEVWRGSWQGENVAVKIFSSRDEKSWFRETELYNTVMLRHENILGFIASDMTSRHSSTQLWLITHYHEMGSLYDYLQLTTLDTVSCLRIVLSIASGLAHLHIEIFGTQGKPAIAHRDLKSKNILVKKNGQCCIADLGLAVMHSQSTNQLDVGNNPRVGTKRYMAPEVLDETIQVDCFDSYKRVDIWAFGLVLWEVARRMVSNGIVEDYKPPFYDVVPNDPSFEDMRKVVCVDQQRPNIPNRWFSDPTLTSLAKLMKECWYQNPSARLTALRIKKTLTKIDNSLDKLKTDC
Test: BRE-LUC with constitutive active ALK2 in C2C12 cells
Format: cell-based
Conditions: compound 0.5μM 16 hours
Description: Compounds were added for 16 hours at 0.5μM before luciferase activity was measured.
For luciferase reporter assays, cells were seeded in 24-well plates and transfected with DharmaFECT Duo (Fisher Scientific, Landsmeer, The Netherlands), following the recommendations of the manufacturer. 48 hours after transfection the cells were harvested and lysed. […] Each transfection mixture was equalized with empty vector when necessary and every experiment was performed in triplicate.

c1ccc2c(-c3cnn4cc(-c5ccc(N6CCNCC6)cc5)cnc34)ccnc2c1 [LDN-193189, reference compound]
Inhibition of caALK2-driven BRE-LUC activity: significantly inhibited
